Measured values taken from patent US12031977B2, “Ex vivo system for determining multiple drug-drug transporter interactions and methods of use thereof” (Massachusetts Institute of Technology, priority 2019, dated 2024).

Columns and labels:
[1] = tested on: Pgp, BCRP, MRP2; conditions: transporter(s) reported in previous literature for the drug; cited from earlier work
[2] = tested on: P-gp, BCRP, and MRP2; test: mock screening of model drugs: ex vivo perfusion through porcine small intestine tissue after siRNA knockdown; conditions: transporter(s) found by siRNA knockdown perfusion screen

Substance | Literature Target [1] | Platform Target [2]
S)-(−)-Propranolol hydrochloride | Pgp | Pgp
Dihydroergotamine (+)-tartrate salt | Pgp | MRP2
